The target in this assay is Inhibitor of nuclear factor kappa-B kinase subunit beta (Homo sapiens, UniProt O14920).

Sequences of proteins named here, by UniProt entry; tags and fusion partners are left off. A change or cut given only in a name is not applied to a line headed by its entry.
UniProt O14920: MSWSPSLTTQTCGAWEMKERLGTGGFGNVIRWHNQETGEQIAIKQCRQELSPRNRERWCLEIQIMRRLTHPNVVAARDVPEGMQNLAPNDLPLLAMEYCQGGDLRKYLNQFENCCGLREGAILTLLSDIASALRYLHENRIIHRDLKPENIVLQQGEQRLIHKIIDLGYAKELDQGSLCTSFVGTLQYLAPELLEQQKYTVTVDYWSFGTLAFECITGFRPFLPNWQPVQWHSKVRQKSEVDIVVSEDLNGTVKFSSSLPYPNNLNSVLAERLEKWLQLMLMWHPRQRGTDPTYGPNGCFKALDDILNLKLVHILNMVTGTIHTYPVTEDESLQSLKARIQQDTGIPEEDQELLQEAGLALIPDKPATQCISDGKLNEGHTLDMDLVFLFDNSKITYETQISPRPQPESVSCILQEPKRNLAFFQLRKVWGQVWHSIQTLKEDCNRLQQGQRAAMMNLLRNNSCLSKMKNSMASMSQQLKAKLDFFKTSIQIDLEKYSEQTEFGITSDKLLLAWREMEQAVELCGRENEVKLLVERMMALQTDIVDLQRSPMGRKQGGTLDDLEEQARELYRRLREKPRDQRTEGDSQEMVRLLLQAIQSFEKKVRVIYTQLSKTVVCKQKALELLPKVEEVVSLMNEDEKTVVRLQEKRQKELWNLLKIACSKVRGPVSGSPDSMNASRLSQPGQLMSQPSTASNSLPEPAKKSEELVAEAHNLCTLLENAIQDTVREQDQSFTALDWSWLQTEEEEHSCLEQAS

Each structure is given as a SMILES string.

The IC50 is the concentration at which inhibition is half-maximal. The molecule `CNc1nc2[nH]c(-c3cccc(CNC(=O)CO)c3)cc2c2c1ncn2C` showed an IC50 of 25.1 nM.

In turn, `CNc1nc2[nH]c(-c3cccc(CN)c3)cc2c2c1ncn2C` gave an IC50 of 11 nM.

(Values after ChEMBL document CHEMBL2375326, “Novel IKKβ inhibitors discovery based on the co-crystal structure by using binding-conformation-based and ligand-based method” (Eur J Med Chem, 2013).)
